We go through 23 molecules from PubChem BioAssay AID2716 (Broad Institute, 2010).

Molecules are shown by their SMILES. Only a part is listed here, and it is no random draw. Some tests of the compounds listed are not included; inactive here does not mean inactive elsewhere. The source made the active and inactive calls.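 How the source made its calls: active means every valid replicate shows activation above 250% relative to neutral control wells; inactive means the rest, any valid replicate at or below 250%.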

The test can be described thus: yeast Mot1-301 growth rescue at high temperature, primary screen, SUMOylation pathway inhibitor project, S. cerevisiae, ATP luminescence, 38.5C (AID 2716).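 Further: OY570 slx delta 5 strain wells were the positive control but not used for scaling.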 To be noted: S. cerevisiae Mot1-301 growth rescue, at 18.8 µM, active compounds read high, percent above DMSO median, 100 means doubled.
For `CN1[C@@H]2CC[C@H]1CC(OC(=O)C(O)(c1ccccc1)c1ccccc1)C2` (stereo partly drawn), the growth rescue was inactive: 21.5%.
In the case of `Cc1ccc(C(=O)NCC2(N3CCCCC3)CCCCC2)cc1` it was inactive: 53.1%; in that of `CC(C)N1C(=O)CC2(CCN(CCOC(=O)C(O)(c3ccccc3)c3ccccc3)CC2)C1=O`, inactive: 134%; in that of `COc1cc(SC)ccc1C(=O)NCC1(N(C)C)CCCCC1`, inactive: -2.18%.
Consider `CCN(CC)CC(C)C(C)OC(=O)C(O)(c1ccccc1)c1ccccc1` (stereo not drawn), for which the growth rescue is inactive: 50.5%.
In the case of `CN(C)C1CCCC1OC(=O)C(O)(c1ccccc1)c1ccccc1` (stereo not drawn) it was inactive: 3.42%; in that of `CN(C)c1ccc(C(=O)NCC2(N(C)C)CCCCC2)cc1`, inactive: 1.97%.
In the case of `Cc1ccccc1C(=O)NCC1(N2CCCCC2)CCCCC1` it was inactive: 46.7%.
In the case of `O=C(NCC1(N2CCCCC2)CCCCC1)c1cccc(Br)c1` it was inactive: -2.6%; in that of `Cc1cc(C(=O)NCC2(N3CCCCC3)CCCCC2)ccc1[N+](=O)[O-]`, inactive: 84.1%.
For `CCN1CCCC(OC(=O)C2(O)c3ccccc3C=Cc3ccccc32)C1` (stereo not drawn), the growth rescue is inactive: -6.14%.
For the molecule `COc1ccc(C(=O)NCC2(N(C)C)CCCCC2)cc1`, the growth rescue is inactive: 198%.
In the case of `O=C(NCC1(N2CCCCC2)CCCCC1)c1cc(F)c(F)cc1Cl` it was inactive: 3.53%; in that of `C=CCN1CCN(CCOC(=O)C(O)(c2ccccc2)c2ccccc2)CC1`, inactive: 14%; in that of `COc1cc(C(=O)NCC2(N(C)C)CCCCC2)c([N+](=O)[O-])cc1OC`, inactive: 9.94%.
In the case of `CN(C)C1(CNC(=O)c2ccc(Br)cc2)CCCCC1` it was inactive: 3.2%.
Turning to `O=C(NCC1(N2CCCCC2)CCCCC1)c1cccc(Cl)c1`, the growth rescue is inactive: -7.64%.
Turning to `COc1ccc(Cl)cc1C(=O)NCC1(N(C)C)CCCCC1`, the growth rescue is inactive: -18.6%.
Take `COc1cccc(C(=O)NCC2(N3CCCCC3)CCCCC2)c1`: the growth rescue was inactive: -7.55%.
In the case of `O=C(OC1CN2CCC1CC2)C(CO)(c1ccccc1)c1ccccc1` (stereo not drawn) it was inactive: -6.65%; in that of `CN(C)c1cccc(C(=O)NCC2(N(C)C)CCCCC2)c1`, inactive: 4.12%; in that of `CC(C)Oc1ccc(C(=O)NCC2(N(C)C)CCCCC2)cc1`, inactive: -6.34%.
In the case of `COc1ccc(Br)c(C(=O)NCC2(N3CCCCC3)CCCCC2)c1` it was inactive: 222%.
